Measured values published in US9371337B2, “β-lactamase inhibitors” (The Regents of the University of California, priority 2011, dated 2016).

Protein sequences, listed by entry. Tags and fused reporters are not part of them. Residues count along the entry.
UniProt Q9L5C8, 29-291: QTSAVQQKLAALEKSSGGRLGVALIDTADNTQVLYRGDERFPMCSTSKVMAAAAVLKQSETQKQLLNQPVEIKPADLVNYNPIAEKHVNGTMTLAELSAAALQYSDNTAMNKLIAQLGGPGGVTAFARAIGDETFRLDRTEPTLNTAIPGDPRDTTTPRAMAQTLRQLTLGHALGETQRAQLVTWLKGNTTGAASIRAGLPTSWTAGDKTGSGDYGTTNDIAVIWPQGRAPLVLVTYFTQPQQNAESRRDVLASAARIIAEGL

Experiments:
Type in all cases: biochemical
[1] = target: T1, α-chymotrypsin (bovine pancreatic) (Bos taurus, UniProt P00766); assay: α-Chymotrypsin inhibition; conditions: Table 4h
T1 construct: purchased Sigma-Aldrich
Procedure: α-Chymotrypsin assays were performed in 50 mM Tris buffer pH 7.5 with 0.01% Triton-X. Inhibitor and 0.001 mg/mL enzyme were incubated at their final concentration for 10 min before the reaction was initiated by the addition of 200 μM N-succinyl-Ala-Ala-Pro-Phe p-nitroanilide and monitored at 410 nm.
(§1) To assess the selectivity of the new molecules we determined Ki values against three common serine proteases, Trypsin, Elastase and α-Chymotrypsin, as well as that of a class A β-lactamase, CTX-M-9 (Table 10) (Pouvreau L, et al. (1998), FEBS Lett 423:167-172; Del Mar E G, et al. (1980), Biochemistry 19:468-472; Rodriguez-Martinez J A, et al. (2009), Biotechnol Lett 31:883-887; Chen Y, et al. (2005), J Mol Biol 348:349-362).

[2] = system: Elastase; assay: Elastase inhibition; conditions: Table 4h
From the text: as §1

[3] = target: CTX-M-9 β-lactamase (Escherichia coli, UniProt Q9L5C8); conditions: Table 4h, CTX-M-9 vs AmpC
Procedure: Reactions were initiated by the addition of 0.3 nM enzyme and monitored at 405 nm.
as §1

[4] = system: Trypsin; assay: Trypsin inhibition; conditions: Table 4h

Pinacol(chloromethanesulfonylamino)methaneboronate [CR70]
Selectivity vs AmpC (comparison of IC50 values) [1]: 581 | Selectivity vs AmpC (comparison of IC50 values) [2]: 7 | Selectivity vs AmpC (comparison of IC50 values) [3]: 10 | Selectivity vs AmpC (comparison of IC50 values) [4]: 2086
